Patent publication US11806555B2, “Methods for treating hair loss disorders” (THE TRUSTEES OF COLUMBIA UNIVERSITY IN THE CITY OF NEW YORK, priority 2010, dated 2023)

System: dermal sheath cells

tofacitinib
IL-15-induced LAK cell cytotoxic function (dermal sheath cell cytotoxicity): inhibits
